Ab-14 heavy chain CDR variants: yeast mating affinities

Values reported by Engelhart et al. 2022, doi:10.1038/s41597-022-01779-4 (FLAb copy).

All variants were tested on one target, the spike HR2 peptide PDVDLGDISGINAS (SARS-CoV-2).

Each scFv is VH, three GGGGS repeats, VL, as in the parent Ab-14, and differs from it in the CDRs of the heavy chain only.
VH: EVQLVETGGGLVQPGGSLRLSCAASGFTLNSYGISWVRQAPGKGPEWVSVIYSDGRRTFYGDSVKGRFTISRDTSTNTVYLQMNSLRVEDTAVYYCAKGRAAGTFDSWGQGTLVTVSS
VL: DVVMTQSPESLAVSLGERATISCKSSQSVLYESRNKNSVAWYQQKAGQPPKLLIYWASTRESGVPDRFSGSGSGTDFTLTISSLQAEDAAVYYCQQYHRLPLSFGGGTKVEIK

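The parent was found by panning a naive human phage display library on the peptide. The library (AAYL49) carries one to three amino acid substitutions per variant, with no insertions or deletions. AlphaSeq pools MATa yeast showing the antibodies with MATalpha yeast showing the peptide. Pairs that bind mate more often; barcode pairs of the diploids are counted by sequencing. Read counts were normalised to the haploid input and turned into Kd by a linear fit to BCL2-family pairs of known affinity, for each replicate. Each pool was mated in three replicate cultures.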

Positions count from residue 1 of the parent VH; T58D puts D in place of T.
All variants listed here change T58 of the VH, counted from its first residue.
The Kd shown is the geometric mean over detected replicates; a lower Kd is a better binder.
"no signal" marks a missing value. The strain was present, yet no cells mated with the target were sequenced in any replicate, which points to weak or no binding.
For reference, the parent read 4.4 nM as the reference entry and 13 µM (one replicate of three) as a member of this library.
Empty control strains, which show no peptide, gave a signal in 15% of pairings with library AAYL49; the median was 11 µM and 95% of these signals were weaker than 680 nM. No background was subtracted.

changes	apparent Kd	seen in
T58D/S107K	no signal	0 of 3
N30M/T58I/F105N	no signal	0 of 3
G26P/T58D/S63D	78 µM	1 of 3
Y32D/G33D/T58L	no signal	0 of 3
L29T/S35Q/T58N	no signal	0 of 3
S35V/T58V/A102Y	2.4 µM	1 of 3
S31N/T58F/Y60K	no signal	0 of 3
T58P	150 µM	1 of 3
T28S/T58D/Y60K	13 µM	1 of 3
L29Q/V50Y/T58L	5.6 µM	3 of 3
T58H/S63T/V64T	15 µM	2 of 3
T58Y/G103N/S107Y	5.0 µM	1 of 3
F27H/T58I	no signal	0 of 3
T58A/R100Y	30 nM	3 of 3
G55V/T58F/R100N	no signal	0 of 3
T58V/A102Y/T104D	no signal	0 of 3
S31H/G33P/T58L	550 µM	1 of 3
T58I/Y60I/G61T	910 nM	3 of 3
G55M/T58S/G99V	no signal	0 of 3
T58D/F105H	no signal	0 of 3
F27I/T28W/T58M	1.6 µM	1 of 3
T58S/V64R/F105D	820 nM	1 of 3
T58K/Y60N/G99Q	no signal	0 of 3
G55S/T58N/T104I	100 µM	3 of 3
T58G/Y60M/G99Q	no signal	0 of 3
T28A/S35L/T58G	27 µM	2 of 3
S35V/T58I	no signal	0 of 3
R56N/T58P/Y60P	no signal	0 of 3
G55S/R56Y/T58P	no signal	0 of 3
S53Y/T58I/V64Q	no signal	0 of 3
T58Y/S63F	19 µM	1 of 3
I34G/R56W/T58C	no signal	0 of 3
S35Q/T58Q/A101C	no signal	0 of 3
D54E/T58A/S63E	no signal	0 of 3
F27H/Y32G/T58G	no signal	0 of 3
G33H/S53V/T58N	no signal	0 of 3
S31N/T58H/F105D	3.3 µM	1 of 3
V50N/T58S	no signal	0 of 3
I51G/S53T/T58C	4.0 µM	1 of 3
T58Y	530 nM	2 of 3
I51H/T58C/Y60C	5.1 µM	1 of 3
T58S/R100N	6.5 nM	3 of 3
G55Q/T58N/Y60K	19 µM	1 of 3
T58A/Y60T/F105V	8.7 µM	1 of 3
G55K/T58I/G99H	no signal	0 of 3
S35H/G55M/T58W	no signal	0 of 3
S35I/T58F/F59Y	4.3 µM	2 of 3
V50R/T58M/Y60M	270 µM	1 of 3
L29R/T58E/K65A	1.5 µM	1 of 3
G26T/S35G/T58W	no signal	0 of 3
G26H/S31V/T58N	no signal	0 of 3
S35F/T58R/G61F	no signal	0 of 3
T58D/D106L	240 nM	2 of 3
S35W/T58L/T104M	390 nM	1 of 3
S35N/T58S/K65F	18 µM	2 of 3
T28M/G55D/T58N	no signal	0 of 3
I34A/G55L/T58L	no signal	0 of 3
T28Y/T58P/F59C	4.4 µM	2 of 3
V50P/T58R/F59N	no signal	0 of 3
S31L/D54Q/T58V	no signal	0 of 3
Y32T/T58V/F105C	1.5 µM	2 of 3
G33W/G55H/T58G	no signal	0 of 3
Y32M/T58G/D62L	100 µM	1 of 3
R56K/T58K	9.2 nM	3 of 3
T58N/T104N/D106S	59 µM	3 of 3
T58N	110 nM	3 of 3
T58K/G99I/T104S	no signal	0 of 3
T28M/T58Y	920 nM	3 of 3
R56W/R57K/T58F	11 µM	1 of 3

Repeated from above, the 6 best binders with a signal in all replicates:

| changes | apparent Kd | seen in |
|---|---|---|
| T58S/R100N | 6.5 nM | 3 of 3 |
| R56K/T58K | 9.2 nM | 3 of 3 |
| T58A/R100Y | 30 nM | 3 of 3 |
| T58N | 110 nM | 3 of 3 |
| T58I/Y60I/G61T | 910 nM | 3 of 3 |
| T28M/T58Y | 920 nM | 3 of 3 |